This passage reports EC50 results from EP4725948A1, “PYRROLO[2,3-D]PYRIMIDIN-4-AMINE DERIVATIVE AND USE THEREOF IN MEDICINE” (Haisco Pharmaceutical Group Co., Ltd., priority 2023, dated 2024).

The chains behind the UniProt entries cited, without tags or fusion partners.
UniProt Q02108, whole entry: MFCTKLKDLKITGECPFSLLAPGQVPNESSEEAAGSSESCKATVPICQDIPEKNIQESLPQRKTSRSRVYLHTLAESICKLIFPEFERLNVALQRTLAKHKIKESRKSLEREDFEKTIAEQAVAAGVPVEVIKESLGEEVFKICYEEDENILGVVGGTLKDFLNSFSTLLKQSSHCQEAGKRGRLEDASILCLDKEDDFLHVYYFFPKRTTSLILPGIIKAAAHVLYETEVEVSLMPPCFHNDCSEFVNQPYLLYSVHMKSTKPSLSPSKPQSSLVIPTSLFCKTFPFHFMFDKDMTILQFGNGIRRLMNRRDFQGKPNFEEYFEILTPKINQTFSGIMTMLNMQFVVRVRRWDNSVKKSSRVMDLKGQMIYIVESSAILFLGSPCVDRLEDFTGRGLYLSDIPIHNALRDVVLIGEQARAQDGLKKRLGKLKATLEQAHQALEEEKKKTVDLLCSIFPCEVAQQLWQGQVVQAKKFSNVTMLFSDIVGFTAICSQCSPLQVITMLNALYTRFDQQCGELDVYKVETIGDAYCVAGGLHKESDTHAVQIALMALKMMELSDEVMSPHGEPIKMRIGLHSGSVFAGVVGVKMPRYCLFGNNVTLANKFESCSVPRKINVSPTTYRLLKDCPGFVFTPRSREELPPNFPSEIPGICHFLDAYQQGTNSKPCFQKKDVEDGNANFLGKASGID
UniProt Q02153, whole entry: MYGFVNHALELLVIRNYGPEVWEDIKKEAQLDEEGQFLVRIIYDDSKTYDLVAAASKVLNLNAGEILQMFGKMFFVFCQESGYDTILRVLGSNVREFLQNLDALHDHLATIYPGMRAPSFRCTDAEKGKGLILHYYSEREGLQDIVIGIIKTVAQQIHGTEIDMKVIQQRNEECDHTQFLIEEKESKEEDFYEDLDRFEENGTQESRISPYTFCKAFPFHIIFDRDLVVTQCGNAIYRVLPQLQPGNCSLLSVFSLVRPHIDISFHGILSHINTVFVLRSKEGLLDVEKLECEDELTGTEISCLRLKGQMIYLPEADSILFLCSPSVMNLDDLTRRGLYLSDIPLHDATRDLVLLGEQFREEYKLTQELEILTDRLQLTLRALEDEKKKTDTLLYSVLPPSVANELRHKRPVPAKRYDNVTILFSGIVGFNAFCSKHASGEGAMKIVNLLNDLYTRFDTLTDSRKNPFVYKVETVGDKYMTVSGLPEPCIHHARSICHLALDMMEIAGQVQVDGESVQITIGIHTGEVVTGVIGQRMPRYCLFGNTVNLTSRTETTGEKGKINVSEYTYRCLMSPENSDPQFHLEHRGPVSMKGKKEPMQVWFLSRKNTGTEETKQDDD

The target of the assay is soluble guanylate cyclase (sGC) (Homo sapiens, UniProt Q02108+Q02153). Put plainly: In vitro detection experiment for soluble guanylate cyclase (sGC) activity (TR-FRET).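 Note: enzyme reaction started with GTP and run for 60 min at 37°C, followed by a 60 min detection step at room temperature, with EC50 obtained by nonlinear curve fitting.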 As to conditions: enzymatic agonism and/or activation of sGC; 1.5 nM sGC, 5 µM GTP, 100 µM DETA NONOate; tested form: TFA.

For orientation: EC50 means the concentration needed to bring the measured effect to its halfway point. Higher therefore signals weaker potency. In turn, `CC(C)(Cc1coc(C2(C)C(=O)Nc3nc(-n4c(=O)n(CC5CCCCC5)c5cc(F)ccc54)nc(N)c32)n1)C(=O)O` (stereo not shown) came in with a concentration giving a half-maximal response (EC50) of less than 20 nM.
